This passage reports fold enhancement of viral binding by anti-SCR3 pretreatment results from patent US20120328575A1.

Sequences of proteins named here, by UniProt entry; tags and fusion partners are left off. Residues count along the entry.
UniProt P08174, 35-353: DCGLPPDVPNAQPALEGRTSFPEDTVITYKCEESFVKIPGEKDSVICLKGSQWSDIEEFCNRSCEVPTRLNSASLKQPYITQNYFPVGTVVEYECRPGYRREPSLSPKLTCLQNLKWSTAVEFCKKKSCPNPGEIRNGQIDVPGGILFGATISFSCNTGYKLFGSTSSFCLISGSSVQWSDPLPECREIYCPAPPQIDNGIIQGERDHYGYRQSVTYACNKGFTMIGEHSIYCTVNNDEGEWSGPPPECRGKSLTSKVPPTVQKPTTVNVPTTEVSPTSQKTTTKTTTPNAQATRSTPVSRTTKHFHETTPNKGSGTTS

The target in this test is Decay-accelerating factor (DAF/CD55), surface expressed (human) (UniProt P08174).

Values joined by “and” are separate entries in the source; they are usually repeats but may differ in a detail not shown here. Identical values can stand only once.

Take “CVA21 parental (CVA21 prototype strain Kuykendall double-plaque purified in SkMel28 cells)”: the fold enhancement of viral binding by anti-SCR3 pretreatment was 8 fold and 4 fold.
